According to patent US11786503B2, “Pharmaceutical compositions and methods for countering chemotherapy induced cardiotoxicity” (Auransa Inc., priority 2016, dated 2023):

Legend:
[1] = system: Human iPSC-derived cardiomyocytes; assay: DOX-induced DNA double strand break, γH2AX immunostaining; assay type: cell-based
[2] = system: cardiomyocytes differentiated from induced pluripotent stem cells; assay: long-term mitochondrial health, TMRM, 7 days (Example 19); assay type: cell-based, human
[3] = system: Doxorubicin treated human iPSC-derived cardiomyocytes; assay: iPSC-CM protection by myricetin analogs (Table 1); assay type: cell-based; conditions: read-out: iPSC-CM protection Max Effect (%), class symbol

Structure (SMILES) | protection against DOX-induced double strand break (γH2AX-positive cells) [1] | mitochondrial toxicity (decrease in TMRM-positive cells) vs mock-treated [2] | Emax [3] [%]
C[C@@H](CN1CC(=O)NC(=O)C1)N1CC(=O)NC(=O)C1 [dexrazoxane] | little or no protection | increase in mitochondrial toxicity | 
O=c1c(O)c(-c2ccccc2)oc2cc(O)ccc12 [Compound 20, 3,7-dihydroxyflavone] |  |  | < 30
